For assay [1], the system named is Mus musculus. The experiment in a line: In vivo antagonist/agonist nature after subcutaneous administration at 2 mg/Kg to mice using hot plate assay; Inactive. (Thermal pain tests record how soon the animal reacts.)
In assay [2] the test system is Mus musculus. Kind of assay: In vivo antagonist/agonist nature after subcutaneous administration at 20 mg/Kg to mice using hot plate assay; Inactive.

The text below walks through data of ChEMBL document CHEMBL1123259, “Probes for narcotic receptor mediated phenomena. 13. Potential irreversible narcotic antagonist-based ligands derived from 6,14-endo-ethenotetrahydronororipavine with 7-(methoxyfumaroyl)amino, (bromoacetyl)amino, or isothiocyanate electrophiles: chemistry, biochemistry, and pharmacology” (1986).

The source made the active and inactive calls. No cut-off for these calls is given here.

With `COC(=O)/C=C/C(=O)N[C@H]1C[C@@]23C=CC1(OC)[C@@H]1Oc4c(O)ccc5c4[C@@]12CCN(CC1CC1)[C@@H]3C5`, the ED50 result with Mus musculus [1] and in the assay with Mus musculus [2] was “inactive” in each case.
In the case of `C=CCN1CC[C@]23c4c5ccc(O)c4O[C@H]2C2(OC)C=C[C@@]3(C[C@@H]2NC(=O)CBr)[C@H]1C5`, the ED50 result with Mus musculus [1] and in the assay with Mus musculus [2] was “inactive” in each case.
Consider `C=CCN1CC[C@]23c4c5ccc(O)c4O[C@H]2C2(OC)C=C[C@@]3(C[C@@H]2N=S)[C@H]1C5`, for which the ED50 result in the assay with Mus musculus [1] and in the assay on Mus musculus [2] was “inactive” throughout.
Regarding `CO[C@]12C=C[C@@]3(C[C@@H]1NC(=O)CBr)[C@H]1Cc4ccc(O)c5c4[C@@]3(CCN1CC1CC1)[C@H]2O5`, the ED50 entry in the assay with Mus musculus [1] and in the assay on Mus musculus [2] was “inactive” in each case.
For the compound `CO[C@]12C=C[C@@]3(C[C@@H]1N)[C@H]1Cc4ccc(O)c5c4[C@@]3(CCN1CC1CC1)[C@H]2O5`, the ED50 result in the assay on Mus musculus [1] and with Mus musculus [2] was “inactive” throughout.
Regarding `COC12C=C[C@@]3(C[C@@H]1N=S)[C@H]1Cc4ccc(O)c5c4[C@@]3(CCN1CC1CC1)[C@H]2O5`, the ED50 entry with Mus musculus [1] and in the assay with Mus musculus [2] was “inactive” throughout.
Consider `C=CCN1CC[C@]23c4c5ccc(O)c4O[C@H]2C2(OC)C=C[C@@]3(C[C@@H]2NC(=O)/C=C/C(=O)OC)[C@H]1C5`, for which the ED50 entry in the assay with Mus musculus [1] and with Mus musculus [2] was “inactive” in each case.
